Values quoted from earlier work, collected in US11713305B2, “Zinc sensors for in vivo imaging of beta-cell function by MRI” (The Board of Regents of the University of Texas System, priority 2017, dated 2023).

Settings: Stewart et al., 2003; read-out: binding affinity for Zn^2+ ions; cited from earlier work

## Human serum albumin: the most abundant protein in plasma
  Kd: 29.5 nM
